Assay results: PubChem BioAssay AID1051 (The Scripps Research Institute Molecular Screening Center, 2008)
Only a part is listed here, and it is no random draw. Active and inactive are the calls of the source. No stated cut-off is given here; in the data, active means TR-FRET ratio above about 2300; inactive means the rest.

Assay: signal artefacts in PPARgamma/SRC-1 readout – biochemical, TR-FRET emission ratio, artefact control for PPARgamma SRC-1 recruitment agonists, primary screen (AID 1051)
Settings: TR-FRET detection artefact counter-screen, at 8 µM, stronger effect = higher value

Row | Compound | TR-FRET ratio
1 | COc1ccc(C(=O)NCC2(N3CCCCC3)CCCCC2)c(OC)c1OC | inactive: 1940
2 | CCOC(=O)N1CCC(Nc2ccc(OC)cc2)CC1 | inactive: 1740
3 | O=C(NCC1(N2CCCCC2)CCCCC1)c1cccc([N+](=O)[O-])c1 | inactive: 2030
4 | COc1ccc(NC2CCN(C(=O)OC(C)(C)C)CC2)cc1 | inactive: 1800
5 | CN1CCN(CCOC(=O)C(O)(c2ccccc2)c2ccccc2)CC1 | inactive: 1710
6 | COc1ccc(CN(CCCl)CCCl)cc1Cl | inactive: 1800
7 | CN(C)c1cccc(C(=O)NCC2(N3CCCCC3)CCCCC2)c1 | inactive: 1630
8 | CC(C)c1ccc(NC2CCN(C(=O)OC(C)(C)C)CC2)cc1 | inactive: 1860
9 | COc1ccc(C(=O)NCC2(N3CCOCC3)CCCCC2)cc1OC | inactive: 1810
10 | O=C(OC1CN2CCC1CC2)C1c2ccccc2C=Cc2ccccc21 (stereo not given) | inactive: 1780
11 | N#Cc1ccc(C(=O)NCC2(N3CCCCC3)CCCCC2)cc1 | inactive: 1500
12 | CCN1CCC(Nc2cccc(F)c2)CC1 | inactive: 1920
13 | CN(C)c1ccc(C(=O)NCC2(N3CCCCC3)CCCCC2)cc1 | inactive: 1730
14 | CC(C)(C)OC(=O)N1CCC(Nc2ccccc2)CC1 | inactive: 1990
15 | COc1cc(OC)cc(C(=O)NCC2(N3CCOCC3)CCCCC2)c1 | inactive: 1940
